Measured values: paper PMC3905752 (Nature chemical biology, 2013)

Tests used:
Cdc34A^CAT = biological target: T1, Cdc34A^CAT (Homo sapiens, UniProt P49427); experiment: NMR HSQC chemical shift perturbation titration of CC0651 into 15N-Cdc34A^CAT; assay type: binding
T1 sequence (P49427 7-184): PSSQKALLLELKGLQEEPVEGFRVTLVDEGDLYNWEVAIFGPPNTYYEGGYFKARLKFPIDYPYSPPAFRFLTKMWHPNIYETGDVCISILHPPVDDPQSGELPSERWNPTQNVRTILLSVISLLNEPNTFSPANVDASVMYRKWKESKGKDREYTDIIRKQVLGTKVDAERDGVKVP

Cdc34A = Cdc34A (Homo sapiens, UniProt P0CG48+P49427); experiment: Quantitative SCF ubiquitination assay with β-Catenin substrate peptide; assay type: biochemical
SCF^Cdc4-Cdc34A = SCF^Cdc4-Cdc34A (Homo sapiens, UniProt P49427); experiment: biochemical; details: Ubiquitination assay IC50

**Q.** How did the EC50 (Cdc34A^CAT) turn out when `COCC(=O)N[C@@H](Cc1ccc(-c2cc(Cl)cc(Cl)c2)cc1)[C@H](O)[C@@H](O)C(=O)O` [CC0651, (2R,3S,4S)-5-(3′,5′-Dichloro-[1,1′-biphenyl]-4-yl)-2,3-dihydroxy-4-(2 methoxyacetamido)pentanoic acid] was run?
**A.** 267 µM

**Q.** And the IC50 (Cdc34A)?
**A.** 18 ± 1 µM

**Q.** What about the IC50 (SCF^Cdc4-Cdc34A) of the same compound?
**A.** 2.5 ± 1 µM
